# AlphaSeq binding of Ab-14 light chain variants to a spike HR2 peptide

Target: peptide PDVDLGDISGINAS, taken from heptad repeat 2 (HR2) of SARS-CoV-2 spike.

Ab-14 is the parent antibody, in scFv form: VH, then a (GGGGS)3 linker, then VL. The heavy chain is unchanged in all variants.
VH: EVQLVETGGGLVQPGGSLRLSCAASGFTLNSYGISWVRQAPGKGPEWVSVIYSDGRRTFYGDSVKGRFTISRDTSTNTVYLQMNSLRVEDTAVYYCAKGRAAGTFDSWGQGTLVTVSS
VL: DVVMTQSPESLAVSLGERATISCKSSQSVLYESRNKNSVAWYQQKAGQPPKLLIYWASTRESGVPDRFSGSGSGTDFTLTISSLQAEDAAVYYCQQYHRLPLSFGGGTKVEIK

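The parent was found by panning a naive human phage display library on the peptide. Variants in AAYL50 differ from the parent at up to three CDR positions; double and triple changes were sampled at random. Affinity was read by AlphaSeq, a pooled yeast mating assay with surface-displayed partners. The frequency of each diploid, read from paired DNA barcodes, reflects how well the two displayed proteins bind. A regression on co-assayed BCL2-family reference pairs converts the normalised counts of each replicate to an apparent Kd. The assay was run in three technical replicates.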

Substitutions are numbered in sequence along the VL above, starting at 1 (not Kabat). The read-out is the apparent dissociation constant on a log10 scale (nM): the lower, the stronger. Replicates are averaged; those with no signal do not enter the mean. "no signal" marks a missing value. The strain was present, yet no cells mated with the target were sequenced in any replicate, which points to weak or no binding. Parent in this assay: reference entry 0.65, copy in this library 1.68. Background: pairings of library AAYL50 with three empty control strains gave a value in 18% of cases (median 4.19, 5th percentile 2.99). Values in that range, when seen in few replicates, are hard to tell from nonspecific mating. Also given: how often the same scFv was detected with the empty control strains.

changes	mean, log10 nM	seen in	empty controls
Y31E/R34V/V39Q	4.65	1/3	2/9
E32T/Q96N/S103K	3.75	3/3	2/9
K36L/A40D/T59E	4.06	3/3	5/9
V29C/N35P/H98P	3.22	3/3	1/9
K24Y/S28F/Q95T	4.45	1/3	0/9
Q27I/A40C/E61Y	2.97	3/3	2/9
A57V/R60I/S103F	no signal	0/3	0/9
N37L/R60K/Y97C	2.78	3/3	1/9
L30Q/R34Q/L102Y	1.68	3/3	1/9
S25N/Q27M/Q95W	3.72	2/3	2/9
S25Y/N35M/L102Y	2.97	1/3	0/9
N35T/S38H/A40T	3.87	2/3	2/9
L30Y/W56Y/R99K	0.95	3/3	2/9
S25K/A57W/R99H	2.81	1/3	0/9
H98P/R99K/S103A	4.48	2/3	2/9
R34E/K36W/S103W	2.67	3/3	1/9
V29M/L30G/E61H	1.88	3/3	3/9
S25W/S38P/S58Q	2.79	3/3	5/9
T59M/E61A/S103Q	1.20	3/3	2/9
E32R/V39H/Y97K	2.83	1/3	2/9
L30P/E61A	0.86	3/3	6/9
S38C/E61T/L100V	no signal	0/3	0/9
K24R/L30Q/A57I	no signal	0/3	1/9
L30Q/E32I/S58R	no signal	0/3	1/9
R34N/W56I/T59Y	4.52	1/3	1/9
P101Q/L102F	no signal	0/3	1/9

Second part, the sequence after the result:

mean, log10 nM	seen in	empty controls	changes
1.46	3/3	8/9	N37T/E61V
1.96	3/3	4/9	S38F/W56R/S103Y
3.67	1/3	1/9	S26Q/Q27N/S38I
no signal	0/3	0/9	S26L/V29E/A40D
0.82	3/3	0/9	L30Q/R34N/N37L
1.28	3/3	1/9	S25W/L30A/Y97E
no signal	0/3	2/9	Y31V/S38I/R99N
1.22	3/3	1/9	N35S/S62A/H98I
no signal	0/3	1/9	L30N/Y31E/E61K
4.71	3/3	5/9	W56R/A57H/S62W
3.49	1/3	0/9	K24P/S38I/E61H
2.99	2/3	0/9	S58H/R60S/E61Y
2.17	3/3	1/9	E32W/S58D/R99N
no signal	0/3	2/9	K24D/A57I/Q95S
1.91	3/3	4/9	N35T/S58A/H98A
no signal	0/3	1/9	S26H/Y31K/Q96I
2.11	3/3	0/9	N37P/T59M/Y97K
3.24	1/3	1/9	K24G/R60V/L100G
1.82	3/3	0/9	S28M/E32G/T59N
0.41	3/3	0/9	Y31T/N35E/S62D
no signal	0/3	2/9	V29A/S33L/L100S
5.68	1/3	2/9	R60Y/Y97Q/S103N
2.03	1/3	0/9	A57N/T59Q/P101H
no signal	0/3	0/9	S28K/Q95M/L102N
no signal	0/3	1/9	S26T/Y31F
0.16	3/3	0/9	R34L/N35R/W56E
2.74	1/3	0/9	E32L/W56R

Repeated from above, the 5 best binders with a signal in all replicates:

changes,"mean, log10 nM",seen in,empty controls
R34L/N35R/W56E,0.16,3/3,0/9
Y31T/N35E/S62D,0.41,3/3,0/9
L30Q/R34N/N37L,0.82,3/3,0/9
L30P/E61A,0.86,3/3,6/9
L30Y/W56Y/R99K,0.95,3/3,2/9

Data: MIT Lincoln Laboratory AlphaSeq set, Engelhart et al. 2022, doi:10.1038/s41597-022-01779-4, as distributed in FLAb.